Here are results for 2 compounds from patent US11447486B2, “2-amino-benzimidazole derivatives and their use as 5-lipoxygenase and/or prostaglandin E synthase inhibitors” (INSTITUT PASTEUR KOREA, priority 2014, dated 2022).

Amino acid sequences for entries named in this document (tags omitted).
UniProt P09917, whole entry: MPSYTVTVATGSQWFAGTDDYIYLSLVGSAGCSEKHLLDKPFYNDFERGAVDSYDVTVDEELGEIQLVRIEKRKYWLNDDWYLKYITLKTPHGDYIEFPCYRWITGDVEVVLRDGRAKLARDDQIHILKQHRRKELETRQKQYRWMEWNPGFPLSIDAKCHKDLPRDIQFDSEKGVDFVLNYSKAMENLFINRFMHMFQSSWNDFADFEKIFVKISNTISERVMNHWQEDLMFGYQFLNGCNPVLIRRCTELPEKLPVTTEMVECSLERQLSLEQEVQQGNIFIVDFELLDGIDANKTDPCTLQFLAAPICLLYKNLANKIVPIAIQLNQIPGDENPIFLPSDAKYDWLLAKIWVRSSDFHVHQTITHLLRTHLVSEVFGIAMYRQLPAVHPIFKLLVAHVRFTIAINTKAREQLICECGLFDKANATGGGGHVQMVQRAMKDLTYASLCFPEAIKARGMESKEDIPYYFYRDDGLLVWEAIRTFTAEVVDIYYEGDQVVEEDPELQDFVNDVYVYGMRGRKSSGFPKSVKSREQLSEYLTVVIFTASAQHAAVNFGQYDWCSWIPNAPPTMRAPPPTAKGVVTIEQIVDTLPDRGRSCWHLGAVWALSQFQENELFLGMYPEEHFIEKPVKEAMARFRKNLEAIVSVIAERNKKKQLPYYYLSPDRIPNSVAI

Assay [1] deals with human 5-LOX (Homo sapiens, UniProt P09917). The experiment in a line: 5-LOX enzyme activity, fluorescence method (5-HPETE, H2DCFDA). The note with it: read-out: 5-LO (IC50).
The test system of assay [2] is Rat basophilic leukemia (RBL) cells. The experiment in a line: LTB4 secretion assay in RBL (rat basophilic leukemia cells). The note with it: read-out: RBL (EC50). The procedure: Rat basophilic leukemia (RBL) cells (ATCC, Cat #CRL-2256) were maintained in EMEM (ATCC, Cat #30-2003) supplemented with 15% FBS. The day before RBL assay, cells were seeded at a concentration of 2×10^4 cells per well in 96-well plates. The media was replaced with 100 ul of EMEM supplemented with 0.5% FBS and compounds in dose response(5 nM to 100 uM) were added. After 15 min of pre-incubation at 37° C., arachidonic acid and calcium ionophore (A23187) were added to give a final concentration of 2.5 uM and 5 uM, respectively. After a further 10 min incubation at 37° C., culture supernatant was transferred and quantification of LTB4 was done with a Leukotriene B4 EIA kit (Cayman, Cat #520111) as instructed.

The IC50 is the concentration that gives 50% inhibition. By EC50 is commonly meant the concentration giving half of the maximal effect. As for `CC(C)(Nc1ccc2[nH]c(N3CCC(Oc4ccc(F)cc4)CC3)nc2c1)C(=O)O`, the IC50 in assay [1] was < 1 µM. Besides, the concentration for a half-maximal effect (EC50) in assay [2] is > 20 µM.

For `COc1ccc2cc(CNc3nc4ccc(N)cc4[nH]3)ccc2n1`, the IC50 in assay [1] is < 1 µM. Also, in assay [2], the 50% effective concentration (EC50) was < 10 µM.
